Columns and labels:
N-129 = N-129 (Homo sapiens, UniProt P03372, E203W/H216G/Q214A); conditions: ATL8/PAL-LUC, 4 ng expression plasmid, 10 nM OHT
ER3M = ER3M (Homo sapiens, UniProt P03372, E203W/G400V/H216G/Q214A); conditions: ATL4/PAL-LUC, 10 nM OHT
C-79 = C-79 (Homo sapiens, UniProt P03372, E203W/H216G/Q214A); conditions: ATL8/PAL-LUC, 4 ng expression plasmid, 10 nM OHT
From the text: These fragments were digested with KpnI and BamHI and then purified from agarose gels. […] To create C-129, this ER fragment was digested with XbaI and KpnI and then cloned together with the DNA fragment containing 129 amino acids of VP16 into 5.9 kb vector generated by digestion of CMV-hER with XbaI and BamHI. The same strategy was adopted to create C-79 using the DNA fragment containing 79 amino acids of VP16. Therefore, the expression of these chimeras is driven by the same CMV promoter as that of ER-3M. […] The amplified PCR product was digested with NcoI and NotI. […] This fragment and the NcoI/NotI PCR fragment were then inserted together into the 4.3 kb vector, pGL3-ATL8/PAL-LUC, which was created by digesting ATL8/PAL-LUC completely with NcoI and partially with XbaI so that the luciferase gene was replaced by N-79.

Chains of the proteins cited; added tags and fusions are not shown. A line that says so, or that is headed by a name, gives the form on record, which may keep a tag or linker.
N-129 (Homo sapiens, UniProt P03372, E203W/H216G/Q214A), UniProt P03372, with tags, fused parts or gaps E203W/Q214A/H216G: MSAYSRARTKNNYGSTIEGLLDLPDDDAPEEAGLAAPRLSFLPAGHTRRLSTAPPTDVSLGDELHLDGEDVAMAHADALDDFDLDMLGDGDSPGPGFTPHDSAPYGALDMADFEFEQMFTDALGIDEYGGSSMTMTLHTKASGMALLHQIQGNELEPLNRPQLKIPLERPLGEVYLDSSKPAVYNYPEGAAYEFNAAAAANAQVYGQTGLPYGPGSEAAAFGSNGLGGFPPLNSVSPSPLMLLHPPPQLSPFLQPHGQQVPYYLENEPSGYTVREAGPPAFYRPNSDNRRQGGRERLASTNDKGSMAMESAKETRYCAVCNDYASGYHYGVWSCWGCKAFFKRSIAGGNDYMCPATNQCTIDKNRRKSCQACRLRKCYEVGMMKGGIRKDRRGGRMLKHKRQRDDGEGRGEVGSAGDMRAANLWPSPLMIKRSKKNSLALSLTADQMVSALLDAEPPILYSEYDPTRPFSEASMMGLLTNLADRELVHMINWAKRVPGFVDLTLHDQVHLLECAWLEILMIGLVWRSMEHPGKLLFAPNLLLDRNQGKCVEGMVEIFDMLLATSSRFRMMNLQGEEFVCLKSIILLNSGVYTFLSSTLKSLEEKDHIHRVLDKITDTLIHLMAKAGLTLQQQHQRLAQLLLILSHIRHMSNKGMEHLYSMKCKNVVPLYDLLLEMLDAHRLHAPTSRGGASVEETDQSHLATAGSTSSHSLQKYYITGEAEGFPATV
UniProt P03372, whole entry E203W/Q214A/H216G/G400V: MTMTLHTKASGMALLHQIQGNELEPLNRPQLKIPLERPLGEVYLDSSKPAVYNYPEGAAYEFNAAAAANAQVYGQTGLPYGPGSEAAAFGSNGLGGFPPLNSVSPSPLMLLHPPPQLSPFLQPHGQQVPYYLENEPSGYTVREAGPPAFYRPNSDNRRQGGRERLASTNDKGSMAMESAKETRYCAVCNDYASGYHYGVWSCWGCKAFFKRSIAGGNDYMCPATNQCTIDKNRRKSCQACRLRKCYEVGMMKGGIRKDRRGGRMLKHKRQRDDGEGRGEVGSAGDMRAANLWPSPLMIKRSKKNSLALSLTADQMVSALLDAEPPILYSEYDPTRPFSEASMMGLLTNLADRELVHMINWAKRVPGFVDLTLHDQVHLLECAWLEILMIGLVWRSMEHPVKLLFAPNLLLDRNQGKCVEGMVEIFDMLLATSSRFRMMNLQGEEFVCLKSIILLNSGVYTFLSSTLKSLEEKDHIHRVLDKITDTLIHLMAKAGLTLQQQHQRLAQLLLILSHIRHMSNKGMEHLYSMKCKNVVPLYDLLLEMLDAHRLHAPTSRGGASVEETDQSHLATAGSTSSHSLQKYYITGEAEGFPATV
C-79 (Homo sapiens, UniProt P03372, E203W/H216G/Q214A), UniProt P03372, with tags, fused parts or gaps E203W/Q214A/H216G: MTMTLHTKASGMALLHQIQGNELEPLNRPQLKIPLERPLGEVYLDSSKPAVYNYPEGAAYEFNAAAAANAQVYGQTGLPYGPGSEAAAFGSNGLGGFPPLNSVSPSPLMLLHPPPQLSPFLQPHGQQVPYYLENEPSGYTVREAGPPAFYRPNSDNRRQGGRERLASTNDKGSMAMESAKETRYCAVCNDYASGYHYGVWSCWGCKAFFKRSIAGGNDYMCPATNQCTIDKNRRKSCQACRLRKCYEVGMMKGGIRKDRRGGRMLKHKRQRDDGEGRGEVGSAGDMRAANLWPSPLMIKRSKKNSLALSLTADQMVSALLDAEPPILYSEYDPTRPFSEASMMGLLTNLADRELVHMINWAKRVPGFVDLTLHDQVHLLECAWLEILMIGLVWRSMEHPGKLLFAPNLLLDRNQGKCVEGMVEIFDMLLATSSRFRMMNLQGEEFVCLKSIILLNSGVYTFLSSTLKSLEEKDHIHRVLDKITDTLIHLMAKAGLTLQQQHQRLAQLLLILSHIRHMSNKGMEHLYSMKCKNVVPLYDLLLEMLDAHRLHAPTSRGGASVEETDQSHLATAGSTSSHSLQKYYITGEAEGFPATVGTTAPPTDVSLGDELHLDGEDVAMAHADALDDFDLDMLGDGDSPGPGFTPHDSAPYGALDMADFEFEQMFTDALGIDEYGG
UniProt P03372, whole entry E203W/Q214V/G215R/H216P/N217T/G400V: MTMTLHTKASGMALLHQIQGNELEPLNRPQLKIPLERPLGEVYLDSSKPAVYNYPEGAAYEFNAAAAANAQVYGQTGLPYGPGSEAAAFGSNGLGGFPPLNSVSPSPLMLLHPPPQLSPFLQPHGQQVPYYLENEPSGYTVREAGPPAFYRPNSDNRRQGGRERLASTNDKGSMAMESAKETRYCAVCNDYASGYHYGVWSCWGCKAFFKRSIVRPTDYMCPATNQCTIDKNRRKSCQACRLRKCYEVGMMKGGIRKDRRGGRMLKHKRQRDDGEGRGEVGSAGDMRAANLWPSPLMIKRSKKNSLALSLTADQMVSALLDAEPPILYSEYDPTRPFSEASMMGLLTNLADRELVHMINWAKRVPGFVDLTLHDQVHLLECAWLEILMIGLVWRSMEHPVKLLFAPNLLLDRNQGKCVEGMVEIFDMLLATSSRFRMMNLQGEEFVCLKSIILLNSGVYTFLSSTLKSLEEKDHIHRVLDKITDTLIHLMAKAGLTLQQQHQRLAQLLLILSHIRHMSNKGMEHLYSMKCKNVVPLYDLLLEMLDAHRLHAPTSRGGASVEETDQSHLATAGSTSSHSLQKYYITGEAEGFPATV

ER 4.3 = ER 4.3 (Homo sapiens, UniProt P03372, E203W/G215R/G400V/H216P/N217T/Q214V); conditions: ATL4/PAL-LUC, 10 nM OHT

For 4-hydroxytamoxifen [OHT], the “fold induction by OHT” value (N-129) was 13.8 fold, the “fold induction by OHT” value (ER3M) was “greater than 80 fold” and the “fold induction by OHT” value (C-79) was “less than three”. The “fold induction by OHT” value (ER 4.3) was “greater than 80 fold”.

— US7153685B2 (The Board of Trustees of the University of Illinois, priority 2002, dated 2006)
